Our source for the Ki values is US7173027B2, “Receptor selective cannabimimetic aminoalkylindoles” (University of Connecticut, priority 2001, dated 2007).

Amino acid sequences for entries named in this document (tags omitted). A change or cut given only in a name is not applied to a line headed by its entry.
UniProt P47936: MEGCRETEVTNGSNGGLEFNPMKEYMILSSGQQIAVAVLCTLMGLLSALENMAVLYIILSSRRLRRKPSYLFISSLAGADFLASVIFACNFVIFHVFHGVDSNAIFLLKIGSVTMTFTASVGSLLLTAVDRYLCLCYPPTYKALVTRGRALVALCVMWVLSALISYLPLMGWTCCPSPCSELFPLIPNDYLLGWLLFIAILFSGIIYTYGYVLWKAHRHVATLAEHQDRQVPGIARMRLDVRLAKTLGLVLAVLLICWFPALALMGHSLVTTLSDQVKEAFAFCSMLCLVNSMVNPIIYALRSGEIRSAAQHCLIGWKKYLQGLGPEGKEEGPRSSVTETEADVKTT

This test has as its target T1, CB2 receptor (Mus musculus, UniProt P47936).
T1 construct: membranes were prepared from frozen mouse spleen; from tissue; host or cells: frozen mouse spleen membranes
The test is described as follows: CB2 receptor binding, mouse spleen membranes, [3H]CP-55,940 displacement. As for the experimental part:
The prepared cannabinoid compounds were tested for CB2 receptor binding affinity and for CB1 receptor affinity (to determine selectivity for the CB2 receptor). As used herein, “binding affinity” is represented by the IC50 value which is the concentration of an analog required to occupy the 50% of the total number (Bmax) of the receptors. The lower the IC50 value, the higher the binding affinity. […] The binding affinities (Ki) are expressed in nanomoles (nM).
The treated membranes were subsequently used in the binding assay described below. Approximately 30 μg of membranes were incubated in silanized 96-well microtiter plate with TME containing 0.1% essentially fatty acid-free bovine serum albumin (BSA), 0.8 nM [^3H] CP-55,940, and various concentrations of test materials at 30° C. for 1 hour. The samples were immediately filtered using a Packard Filtermate 196 and Whatman GF/C filterplates and washed with wash buffer (TME) containing 0.5% BSA. Radioactivity was detected using MicroScint 20 scintillation cocktail added directly to the dried filterplates, and the filterplates were counted using a Packard Instruments Top-Count. Nonspecific binding was assessed using 100 nM CP-55,940. Data collected from three independent experiments performed with duplicate determinations was normalized between 100% and 0% specific binding for [^3H] CP-55,940, determined using buffer and 100 nM CP-55,940.The normalized data was analyzed using a 4-parameter nonlinear logistic equation to yield IC50 values. Data from at least two independent experiments performed in duplicate was used to calculate IC50 values which were converted to Ki values using the using the assumptions of Cheng et al; “Relationship Between the Inhibition Constant (Ki) and the concentration of Inhibitor which causes 50% Inhibition (IC50) of an Enzymatic Reaction”, Biochem. Pharmacol., 22, 3099–3102, (1 973), which is incorporated by reference herein.
For the CB2 receptor binding studies, membranes were prepared from frozen mouse spleen essentially according to the procedure of P. R. Dodd et al; “A Rapid Method for Preparing Synaptosomes: Comparison with Alternative Procedures”, Brain Res., 226, 107–118 (1981) which is incorporated by reference herein. Silanized centrifuge tubes were used throughout to minimize receptor loss due to adsorption. The CB2 binding assay was conducted in the same manner as the CB1 binding assay. The binding affinities (Ki) were also expressed in nanomoles (nM).

Where two headings read alike, the source gives them in different places.

By Ki is commonly meant the dissociation constant of the complex between target and ligand, obtained from inhibition or displacement. On to `CN1CCCCC1Cn1cc(C(=O)c2ccccc2I)c2ccccc21` (racemic) [2-34(R,S)], for which, for the setting “Table 2, read-out: Ki nM CB2”, the Ki was 3.34 nM.

Consider `CN1CCCC[C@@H]1Cn1cc(C(=O)c2ccccc2I)c2ccccc21` [2-24(R)], for which affinity (Ki nM CB2, Table 1) was put at a Ki of 2.1 nM.

As for `CN1CCCC[C@H]1Cn1cc(C(=O)c2ccccc2I)c2ccccc21` [2-24(S)], the inhibition constant (Ki) (Table 1, read-out: Ki nM CB2) turned out to be 583 nM.

In turn, `CN1CCCC[C@@H]1Cn1cc(C(=O)c2ccccc2I)c2ccccc21` [2-34(R)] displayed an inhibition constant (Ki) (Ki nM CB2, Table 2) of 1.56 nM.

For the setting “Ki nM CB2, Table 2”, `CN1CCCC[C@H]1Cn1cc(C(=O)c2ccccc2I)c2ccccc21` [2-34(S)] registered a Ki of 6.79 nM.
